Measured values reported in patent US20220073536A1 (Rigel Pharmaceuticals, Inc., priority 2003, published 2022).

Tests used:
[1] = test system: cultured human mast cells (CHMC); test: CHMC low cell density IgE activation: tryptase assay; format: cell-based
[2] = molecular target: Syk kinase (Homo sapiens, UniProt P43405); test: Syk kinase biochemical fluorescence polarization assay; conditions: read-out: fp_syk, 11 pt, isolated Syk kinase

IC50 ([1]; read-out: LD Tryptase, CHMC, IgE, 3 pt): < 10 µM
IC50 ([1]; read-out: LD Tryptase, CHMC, IgE, 8 pt): < 10 µM
IC50 [2]: < 10 µM
SMILES: COC(=O)CNC(=O)c1ccc(Nc2nc(Nc3ccc(OC)c(Cl)c3)ncc2F)cc1

Where two headings read alike, the source gives them in different places.
